This passage reports Ki results from patent publication US7671079B2, “Sulfonyltetrahydro-3H-benzo(e)indole-8-amine compounds as 5-hydroxytryptamine-6 ligands” (Wyeth LLC, priority 2003, dated 2010).

By UniProt entry, the sequences of proteins in these tests, tags left out.
UniProt P50406, whole entry: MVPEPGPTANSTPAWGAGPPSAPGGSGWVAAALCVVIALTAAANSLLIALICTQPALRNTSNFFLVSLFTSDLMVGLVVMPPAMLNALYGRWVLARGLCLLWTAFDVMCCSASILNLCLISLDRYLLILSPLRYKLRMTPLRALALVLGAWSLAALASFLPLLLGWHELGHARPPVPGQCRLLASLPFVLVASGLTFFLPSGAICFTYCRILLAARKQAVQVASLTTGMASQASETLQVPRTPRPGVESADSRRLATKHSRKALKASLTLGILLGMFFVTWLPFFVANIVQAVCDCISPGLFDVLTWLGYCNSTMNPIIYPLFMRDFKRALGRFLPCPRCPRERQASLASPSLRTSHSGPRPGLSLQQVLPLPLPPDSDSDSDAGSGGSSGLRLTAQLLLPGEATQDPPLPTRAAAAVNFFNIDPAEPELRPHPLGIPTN

In this assay the target is human cloned 5-HT6 receptors (Homo sapiens, UniProt P50406). The experiment in a line: 5-HT6 binding affinity, [3H]-LSD displacement on membranes of Hela cells expressing human cloned 5-HT6 receptors. As to conditions: read-out: 5-HT6 binding Ki; [3H]-LSD 3.0 nM, Hela cell membranes, 120 min at room temperature.
As to `CCCCNC1CCc2ccc3c(ccn3S(=O)(=O)c3ccc(C)cc3)c2C1` (stereo not drawn), the inhibition constant Ki (as a rule, the dissociation constant of the complex between target and ligand, obtained from inhibition or displacement) was 173 nM.

With `CCCN(CCC)C1CCc2ccc3c(ccn3S(=O)(=O)c3ccc(C)cc3)c2C1` (stereo not drawn), the Ki worked out at 173 nM.

In the case of `Cc1ccc(S(=O)(=O)n2ccc3c4c(ccc32)CCC(NC(C)C)C4)cc1` (stereo not drawn), the Ki is 26 nM.
